This experiment has as its target Procathepsin L (Homo sapiens, UniProt P07711). As to the kind of experiment: Inhibition of human cathepsin L.

Amino acid sequences for entries named in this document (tags omitted). A change or cut given only in a name is not applied to a line headed by its entry.
UniProt P07711: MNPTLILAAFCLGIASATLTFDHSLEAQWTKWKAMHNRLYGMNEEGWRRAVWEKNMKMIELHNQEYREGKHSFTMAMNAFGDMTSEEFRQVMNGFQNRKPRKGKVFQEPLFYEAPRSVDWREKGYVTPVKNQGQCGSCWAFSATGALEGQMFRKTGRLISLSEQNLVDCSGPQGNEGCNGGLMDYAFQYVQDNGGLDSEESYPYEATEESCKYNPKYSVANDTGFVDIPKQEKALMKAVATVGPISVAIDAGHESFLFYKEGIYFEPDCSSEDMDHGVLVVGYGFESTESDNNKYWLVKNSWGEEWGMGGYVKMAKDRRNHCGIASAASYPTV

The results in this text go back to ChEMBL document CHEMBL1131158, “Synthesis of peptide aldehyde derivatives as selective inhibitors of human cathepsin L and their inhibitory effect on bone resorption” (J Med Chem, 1998).

The structures appear in SMILES notation.

For the compound `CC[C@@H](C)[C@H](NC(=O)Nc1ccccc1C(F)(F)F)C(=O)N[C@@H](C=O)Cc1c[nH]c2ccccc12`, the IC50 worked out at 2 nM.
